{"sequences": {"note": "Protein sequences, listed by entry. Tags and fused reporters are not part of them.", "UniProt P08172, whole entry": "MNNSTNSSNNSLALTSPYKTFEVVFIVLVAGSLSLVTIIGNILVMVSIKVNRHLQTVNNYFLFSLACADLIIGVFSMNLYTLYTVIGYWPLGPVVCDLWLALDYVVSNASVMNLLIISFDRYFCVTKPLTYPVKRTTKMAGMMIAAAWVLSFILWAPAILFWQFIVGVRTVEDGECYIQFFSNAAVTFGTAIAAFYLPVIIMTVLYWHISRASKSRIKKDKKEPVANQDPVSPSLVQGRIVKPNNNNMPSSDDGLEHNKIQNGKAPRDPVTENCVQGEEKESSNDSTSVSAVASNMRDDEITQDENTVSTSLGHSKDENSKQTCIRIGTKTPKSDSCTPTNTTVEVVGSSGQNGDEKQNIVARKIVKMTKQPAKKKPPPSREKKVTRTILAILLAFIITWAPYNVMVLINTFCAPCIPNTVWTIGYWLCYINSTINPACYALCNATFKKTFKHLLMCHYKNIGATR"}, "source": "paper PMC6420642", "about": "“Applications and limitations of fitting of the operational model to determine relative efficacies of agonists” (Scientific Reports, 2019)", "target": "M2_G15 fusion protein (M2 muscarinic receptor fused with the G15 G-protein alpha-subunit) (Homo sapiens, UniProt P08172)", "assay": "agonist-stimulated […]GTPγS binding, membranes", "format": "biochemical", "set-up": "gene CHRM2; clone #3, except KA from all five clones", "data": [{"smiles": "CCCCCCOc1nsnc1C1=CCCN(C)C1", "note": "[Xanomeline]", "values": [{"measurement": "EC50", "value": 4.57, "unit": "nM"}]}]}
